# Tests used:
# [1] = system: T47D cells; assay: cells; conditions: Homo sapiens, 144 h, read-out: T47D Proliferation IC50 (nM)
# [2] = system: MCF-7 cells; assay: cells; conditions: Homo sapiens, MCF7, 144 h, read-out: MCF7 Proliferation IC50 (nM)
smiles,measurement,setting,value
"COc1cc(N2CCC(CN3CCN4c5cc6c(cc5OC[C@H]4C3)C(=O)N([C@@H]3CCC(=O)NC3=O)C6)CC2)ccc1[C@H]1c2ccc(O)cc2OC[C@H]1c1ccccc1 (single isomer, unassigned) [Compound A122]",IC50,[1],< 50 nM
same,IC50,[2],< 50 nM

# Source: patent US20260000676A1, “CHROMAN DERIVATIVES AS ESTROGEN RECEPTOR DEGRADERS” (THE REGENTS OF THE UNIVERSITY OF MICHIGAN, priority 2022, published 2026)
